PglD inh: C. jejuni PglD acetyltransferase inhibitors, primary screen, biochemical, DTNB colorimetric, single point. UDP-N-acetylbacillosamine N-acetyltransferase PglD (Campylobacter jejuni). purified PglD enzyme, DTNB colorimetric CoA detection. inhibition, % at 12.5 µM. hit rate 0.098% among 360,000. AID 602405, 2012; in the data active means inhibition above about 16%, passing the limit was not always enough
Yeast UUG start-1: alters start codon recognition fidelity in yeast; S. cerevisiae UUG-firefly luciferase reporter, luminescence/redox ratio; activity score, % at 18.7 µM; actives 0.13% (n = 350,000); AID 602363;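 active = replicate mean at a twofold rise or more, about +100% in these data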;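 also: firefly luciferase made from a UUG start codon reports start codon fidelity; reporter light over untreated wells divided by growth signal over untreated wells; some hits fall short of that in this replicate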
Casp6 inh: human caspase-6 inhibitors, primary screen, biochemical, VEID-R110 fluorescence, single point, set 2; inhibition, % at 12.5 µM; hit rate 0.53% among 350,000; purified caspase-6, Z-VEID-R110 cleavage fluorescence;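 active means mean inhibition across replicates at least about 35%, with every replicate also reaching that limit, limit read from the data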;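 further: 0% = median of neutral control wells and 100% = no fluorescence left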
INS-1E GSIS act: GLuc luminescence reporter in INS-1E cells, primary screen for activators of glucose-dependent secretion of insulin. INS-1E GLuc reporter insulin secretion, 2-3 h. activation, % at 16.6 µM. hit rate 0.61% among 370,000. AID 743287, 2014;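 active means lowest replicate activation of at least 40%, so every replicate reaches that level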;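 further: 0% = median of neutral control wells and 100% = median of IBMX positive control wells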
RAD54 inh: inhibitors of human RAD54 branch migration, primary screen, biochemical, fluorescence, single point; AID 602329, 2012; inhibition, % at 10.4 µM; hit rate 0.14% among 360,000; RAD54 Holliday junction branch migration, FAM/BHQ fluorescence; DNA repair and recombination protein RAD54-like (Homo sapiens), Q92698;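 active means mean normalized replicate activity at least 40 and at least half of replicates scoring 40 or more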;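 further: 0% = median of neutral control wells and 100% = median of positive control wells; inhibitors cause a drop in the FAM fluorescence signal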
RAD52 inh: RAD52 DNA annealing inhibitors, primary screen, biochemical, FRET, single point, set 2 | inhibition, % at 18.7 µM | hit rate 0.46% among 360,000 | recombinant RAD52 DNA annealing, FRET fluorescence;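 active means every replicate showing at least 50% inhibition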
Yeast UUG start-2: enhancers of UUG start codon usage in yeast, dose response, S. cerevisiae, UUG firefly luciferase, cherry-pick, set 2; shares compounds with Yeast UUG start-1; 540 tested, under 10 active; luminescence, 4 h; 100% means double the DMSO signal; activation, % at 38 µM;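 active means signal increase whose fitted curve reaches an absolute level of 40 at a concentration under 10 µM; inactive means activity opposite to the expected increase, or the rest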
* hit, by the source's call; i = inactive; . = no result given. An excerpt weighted towards active compounds, which were near 1.5% of everything screened.

1) O=Cc1cn(CC(=O)NCC2CCCO2)c2ccccc12 (configuration not stated)
2) Cc1cc(SCC(=O)NCC2CCCO2)nc2ccccc12 (configuration not stated)
3) COc1ccc(NC(=O)N(C)C[C@@H]2OCCCC[C@H](C)Oc3ccc(NC(=O)Nc4ccccc4)cc3C(=O)N([C@@H](C)CO)C[C@@H]2C)cc1
4) CCc1ccc(N2C(=O)c3ccc4c5c(ccc(c35)C2=O)CC4)cc1
5) CC1CCN(C(=O)Cn2cc(C(=O)C3CC3)c3ccccc32)CC1
6) Cc1ccc(C(=O)NCCSC(C)(C)C)cc1

| assay / entry | 1 | 2 | 3 | 4 | 5 | 6 |
| --- | --- | --- | --- | --- | --- | --- |
| PglD inh | 2 | 6 | 0 | . | 6 | 3 |
| Yeast UUG start-1 | -7 | 146* | -14 | . | -17 | 321* |
| Casp6 inh | . | -4 | 3 | . | . | . |
| INS-1E GSIS act | . | 13 | -1 | 17 | . | 14 |
| RAD54 inh | -3 | 1 | -16 | . | 2 | 1 |
| RAD52 inh | . | -470 | -34 | . | . | . |
| Yeast UUG start-2 | . | -7 | . | . | -2 | -32 |

7) CC(C)(C)SCCNC(=O)c1ccccc1
8) O=C(NCC[C@H]1CC[C@H](NC(=O)C2CCCCC2)[C@H](CO)O1)c1cnccn1
9) O=S(=O)(N[C@H]1CC[C@@H](CCn2cc(C3(O)CCCC3)nn2)O[C@@H]1CO)c1ccc(F)cc1
10) O=S(=O)(N[C@@H]1CC[C@H](CCn2cc(C3(O)CCCC3)nn2)O[C@@H]1CO)c1ccc(F)cc1
11) O=C(N[C@H]1CC[C@H](CCn2cc(C3(O)CCCC3)nn2)O[C@H]1CO)C1CCCCC1
12) Nn1c(SCc2ccccc2)nnc1-c1ccco1

| assay / entry | 7 | 8 | 9 | 10 | 11 | 12 |
| --- | --- | --- | --- | --- | --- | --- |
| PglD inh | 1 | 6 | 1 | -1 | -6 | 10 |
| Yeast UUG start-1 | -12 | 158* | 178* | -2 | 162* | -17 |
| Casp6 inh | . | -2 | -1 | 2 | 0 | 3 |
| INS-1E GSIS act | . | -9 | 1 | -10 | -11 | 3 |
| RAD54 inh | -7 | -28 | 2 | 7 | -15 | 13 |
| RAD52 inh | . | 13 | 3 | -4 | 20 | -8 |
| Yeast UUG start-2 | . | i | i | . | i | . |

Single records, from the list above. Values in the order: PglD inh | Yeast UUG start-1 | Casp6 inh | INS-1E GSIS act | RAD54 inh | RAD52 inh | Yeast UUG start-2
Profile of O=Cc1cn(CC(=O)NCC2CCCO2)c2ccccc12 (configuration not stated) → 2 | -7 | . | . | -3 | . | .
Profile of CC(C)(C)SCCNC(=O)c1ccccc1 → 1 | -12 | . | . | -7 | . | .
Profile of O=S(=O)(N[C@@H]1CC[C@H](CCn2cc(C3(O)CCCC3)nn2)O[C@@H]1CO)c1ccc(F)cc1 → -1 | -2 | 2 | -10 | 7 | -4 | .
Profile of COc1ccc(NC(=O)N(C)C[C@@H]2OCCCC[C@H](C)Oc3ccc(NC(=O)Nc4ccccc4)cc3C(=O)N([C@@H](C)CO)C[C@@H]2C)cc1 → 0 | -14 | 3 | -1 | -16 | -34 | .

Other compounds follow.
13) N=c1c(C(=O)NC2CCCC2)cc2c(=O)n3ccccc3nc2n1CCN1CCOCC1
14) N=c1c(C(=O)NC2CCCC2)cc2c(=O)n3ccccc3nc2n1CCCN1CCOCC1
15) O=[N+]([O-])c1c(Nc2ccccc2)ccc2nonc12
16) O=[N+]([O-])c1c(NCc2ccco2)ccc2nonc12
17) CCc1[nH]nc2c1C(Cc1ccccc1)C(C#N)=C(N)O2 (configuration not stated)
18) CCCc1[nH]nc2c1C(Cc1ccccc1)C(C#N)=C(N)O2 (configuration not stated)

| assay / entry | 13 | 14 | 15 | 16 | 17 | 18 |
| --- | --- | --- | --- | --- | --- | --- |
| PglD inh | -6 | 3 | -1 | -3 | -3 | 2 |
| Yeast UUG start-1 | 474* | -6 | -2 | 134* | -21 | 501* |
| Casp6 inh | . | -7 | . | 29 | . | . |
| INS-1E GSIS act | . | 4 | . | 11 | . | 1 |
| RAD54 inh | 6 | 7 | -2 | -6 | -8 | 2 |
| RAD52 inh | . | 19 | . | -26 | . | . |
| Yeast UUG start-2 | -9 | . | . | 3 | . | 10 |

19) CC1=CS(=O)(=O)CC1Sc1nc2ccccc2[nH]1 (configuration not stated)
20) C/C=C/c1ccc2c(c1)O[C@@H](CN(C)CCC)[C@@H](C)CN([C@H](C)CO)S2(=O)=O
21) C/C=C/c1ccc2c(c1)O[C@H](CN(C)C(=O)C1CCCCC1)[C@H](C)CN([C@H](C)CO)S2(=O)=O
22) C/C=C/c1ccc2c(c1)O[C@H](CN(C)Cc1ccc(C(=O)O)cc1)[C@H](C)CN([C@H](C)CO)S2(=O)=O
23) CCCN(C)C[C@@H]1Oc2cc(C3=CCCCC3)ccc2S(=O)(=O)N([C@@H](C)CO)C[C@@H]1C
24) O=C(NCC[C@@H]1CC[C@H](NS(=O)(=O)c2ccc(F)cc2)[C@H](CO)O1)c1ccc2c(c1)OCO2

| assay / entry | 19 | 20 | 21 | 22 | 23 | 24 |
| --- | --- | --- | --- | --- | --- | --- |
| PglD inh | -2 | 2 | -1 | 4 | 2 | 4 |
| Yeast UUG start-1 | -21 | 85* | 201* | 192* | 156* | -3 |
| Casp6 inh | . | -3 | 2 | -1 | 1 | -9 |
| INS-1E GSIS act | . | -3 | -14 | 13 | 3 | 8 |
| RAD54 inh | 0 | -13 | -7 | -3 | 3 | -4 |
| RAD52 inh | . | -4 | 16 | 10 | 31 | -15 |
| Yeast UUG start-2 | . | i | i | i | i | . |

Going on with the list.
The line under a structure holds: PglD inh, Yeast UUG start-1, Casp6 inh, INS-1E GSIS act, RAD54 inh, RAD52 inh, Yeast UUG start-2
[25] COC(=O)N1CCc2c(sc(NC(=O)C3=COCCO3)c2C#N)C1
→ 0, -16, 3, 8, -6, -9, .
[26] CO[C@H]1CN(C)C(=O)c2ccc(NC(C)=O)cc2OC[C@@H](C)N(C(=O)c2ccc(F)cc2)C[C@H]1C
→ 1, 26, 1, -1, -5, 5, .
[27] CO[C@@H]1CN(C)C(=O)c2ccc(NC(=O)Nc3c(C)noc3C)cc2OC[C@H](C)N(C)C[C@H]1C
→ 3, -12, 2, 16, 1, 1, .
[28] CCCC(=O)Nc1ccc2c(c1)C(=O)N(C)C[C@@H](OC)[C@H](C)CN(S(=O)(=O)c1cn(C)cn1)[C@@H](C)CO2
→ 4, 134*, 2, 21, -19, 7, i
[29] CO[C@@H]1CN(C)C(=O)c2ccc(NC(=O)C3CCOCC3)cc2OC[C@@H](C)N(C(C)=O)C[C@H]1C
→ 4, 147*, -2, 18, -8, -2, i
[30] CO[C@H]1CN(C)C(=O)c2ccc(NC(=O)C3CCOCC3)cc2OC[C@@H](C)N(C(C)=O)C[C@@H]1C
→ 2, 9, -1, 9, -8, -7, .
[31] CO[C@H]1CN(C)C(=O)c2ccc(NC(=O)c3nc4ccccc4s3)cc2OC[C@H](C)N(Cc2ccncc2)C[C@H]1C
→ 2, 173*, 0, -39, -6, 11, i
[32] CO[C@@H]1CN(C)C(=O)c2ccc(NC(=O)Nc3c(C)noc3C)cc2OC[C@H](C)N(C)C[C@@H]1C
→ 3, 69*, 17, 21, -9, -4, i
[33] CCCC(=O)Nc1ccc2c(c1)C(=O)N(C)C[C@@H](OC)[C@H](C)CN(S(=O)(=O)c1cn(C)cn1)[C@H](C)CO2
→ -3, -24, 0, -5, 0, -4, .
[34] CN(C1CCCCC1)S(=O)(=O)c1ccc(C(=O)O)cc1
→ -2, -1, ., ., -3, ., .
[35] COC(=O)c1ccc(CS(=O)(=O)c2ccc(F)cc2)o1
→ 1, -7, 15, 21, -10, -20, .
[36] CCOC(=O)c1cc2c(C)n(-c3ccc(OCC)cc3)c(C)c2ccc1=O
→ 2, -10, ., ., 7, ., .
[37] COc1ccc([N+](=O)[O-])cc1NC(=O)COC(=O)C=C(C)C
→ ., ., -2, -2, ., -15, .
[38] C/C=C/c1cnc2c(c1)C(=O)N([C@@H](C)CO)C[C@H](C)[C@@H](CN(C)C(=O)c1cnccn1)O2
→ -2, 6, -1, 10, 5, -1, .
[39] C/C=C/c1cnc2c(c1)C(=O)N([C@H](C)CO)C[C@H](C)[C@H](CN(C)C(=O)c1cnccn1)O2
→ -2, 137*, -2, 25, 4, -3, i
[40] C[C@@H]1CN([C@H](C)CO)C(=O)c2cc(Br)cnc2O[C@@H]1CN(C)C(=O)c1ccccn1
→ -1, 1, 1, -1, 7, -9, .

Screens: PubChem, Broad Institute
